Literature values as cited in patent US20090054334A1, “Combinatorial improvement of bifunctional drug properties” (priority 2007, published 2009).

Conditions: ConjuChem

For insulin, the half-life is given as 8 h.
